From patent US8546147B2, “Imidazo[1,2-α]pyrazin-3(7H)-one derivatives bearing a new electron-rich structure” (Universita degli Studi di Siena, priority 2009, dated 2013)

Assays:
[1] = biological target: T1, RLuC (donor) and Green Fluorescent Protein GFP (acceptor) (Renilla reniformis, UniProt P27652); settings: three different times, FIG. 8-10
T1 sequence (P27652 1-311): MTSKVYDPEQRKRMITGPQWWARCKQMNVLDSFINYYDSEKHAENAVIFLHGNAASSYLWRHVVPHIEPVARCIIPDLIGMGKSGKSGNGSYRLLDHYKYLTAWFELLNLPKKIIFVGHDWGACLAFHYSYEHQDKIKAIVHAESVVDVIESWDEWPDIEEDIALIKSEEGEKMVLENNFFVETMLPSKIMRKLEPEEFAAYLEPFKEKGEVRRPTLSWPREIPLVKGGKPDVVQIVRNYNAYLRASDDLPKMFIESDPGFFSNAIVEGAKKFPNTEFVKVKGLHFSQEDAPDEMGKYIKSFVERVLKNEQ

[2] = biological target: T2, Renilla Luciferase (RLuC) (Renilla reniformis, UniProt P27652)
T2 sequence (P27652 1-311): T1 sequence (P27652 1-311)

Compound	emission over time in BRET experiment (in words) [1]	Biolum. Imax [2] [nm]
O=c1c(Cc2ccccc2)nc2c(Cc3ccccc3)[nH]c(-c3ccccc3)cn1-2 [Compound 23b, 2,8-Dibenzyl-6-phenylimidazo-[1,2-a]pyrazin-3(7H)-one]	decrease over time	
O=c1c(Cc2ccccc2)nc2c(Sc3ccc(Cl)cc3)[nH]c(-c3ccccc3)cn1-2 [Compound 23n, 2-Benzyl-8-(4-chlorophenylthio)-6-phenylimidazo[1,2-a]pyrazin-3(7H)-one]		470
